Biological target: T1, human CD55 (human, UniProt P08174 35-353, limits assumed)
T1 construct: also called Decay-Accelerating Factor; DAF
T1 sequence (looked up): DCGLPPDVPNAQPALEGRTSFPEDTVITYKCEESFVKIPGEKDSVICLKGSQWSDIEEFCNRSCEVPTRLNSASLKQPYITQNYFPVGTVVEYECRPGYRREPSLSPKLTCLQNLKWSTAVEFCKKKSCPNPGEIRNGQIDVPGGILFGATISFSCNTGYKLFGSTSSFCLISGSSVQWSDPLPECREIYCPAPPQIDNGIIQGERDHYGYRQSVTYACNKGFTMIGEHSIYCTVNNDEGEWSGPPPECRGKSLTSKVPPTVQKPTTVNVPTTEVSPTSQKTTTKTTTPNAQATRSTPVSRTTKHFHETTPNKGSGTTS
Assay: library screen, species specificity summary

- binding result: binds
B1: P5-10B (antibody, V domains shown)
VH: EVQLVESGGGLVQPGGSLRLSCAASGFTFTDYDIHWVRQAPGKGLEWVAGWINPYNGYTDYADSVKGRFTISADTSKNTAYLQMNSLRAEDTAVYYCARPLSWALDYWGQGTLVTVSS
VL: not shown
